Experimental findings from patent US9273055B2 (dated 2016) are described below.

Protein sequences, listed by entry. Tags and fused reporters are not part of them. Residues count along the entry.
UniProt Q9UM73, 1060-1620 R1275Q limits assumed: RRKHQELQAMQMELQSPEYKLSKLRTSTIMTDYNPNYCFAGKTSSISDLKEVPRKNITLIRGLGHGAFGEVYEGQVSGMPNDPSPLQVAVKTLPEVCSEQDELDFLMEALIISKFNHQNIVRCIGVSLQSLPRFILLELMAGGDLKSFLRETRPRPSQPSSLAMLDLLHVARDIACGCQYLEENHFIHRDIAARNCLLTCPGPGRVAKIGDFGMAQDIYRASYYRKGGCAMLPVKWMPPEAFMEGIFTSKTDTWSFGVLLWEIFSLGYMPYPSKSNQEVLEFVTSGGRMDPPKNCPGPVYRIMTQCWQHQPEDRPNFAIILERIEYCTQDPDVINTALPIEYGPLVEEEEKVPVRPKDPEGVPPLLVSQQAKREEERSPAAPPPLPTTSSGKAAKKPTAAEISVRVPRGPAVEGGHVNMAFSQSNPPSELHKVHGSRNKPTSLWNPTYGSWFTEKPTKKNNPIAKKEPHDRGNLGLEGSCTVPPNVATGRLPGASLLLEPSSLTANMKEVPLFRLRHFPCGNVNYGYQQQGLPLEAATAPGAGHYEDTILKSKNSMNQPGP
UniProt Q16620, 32-822: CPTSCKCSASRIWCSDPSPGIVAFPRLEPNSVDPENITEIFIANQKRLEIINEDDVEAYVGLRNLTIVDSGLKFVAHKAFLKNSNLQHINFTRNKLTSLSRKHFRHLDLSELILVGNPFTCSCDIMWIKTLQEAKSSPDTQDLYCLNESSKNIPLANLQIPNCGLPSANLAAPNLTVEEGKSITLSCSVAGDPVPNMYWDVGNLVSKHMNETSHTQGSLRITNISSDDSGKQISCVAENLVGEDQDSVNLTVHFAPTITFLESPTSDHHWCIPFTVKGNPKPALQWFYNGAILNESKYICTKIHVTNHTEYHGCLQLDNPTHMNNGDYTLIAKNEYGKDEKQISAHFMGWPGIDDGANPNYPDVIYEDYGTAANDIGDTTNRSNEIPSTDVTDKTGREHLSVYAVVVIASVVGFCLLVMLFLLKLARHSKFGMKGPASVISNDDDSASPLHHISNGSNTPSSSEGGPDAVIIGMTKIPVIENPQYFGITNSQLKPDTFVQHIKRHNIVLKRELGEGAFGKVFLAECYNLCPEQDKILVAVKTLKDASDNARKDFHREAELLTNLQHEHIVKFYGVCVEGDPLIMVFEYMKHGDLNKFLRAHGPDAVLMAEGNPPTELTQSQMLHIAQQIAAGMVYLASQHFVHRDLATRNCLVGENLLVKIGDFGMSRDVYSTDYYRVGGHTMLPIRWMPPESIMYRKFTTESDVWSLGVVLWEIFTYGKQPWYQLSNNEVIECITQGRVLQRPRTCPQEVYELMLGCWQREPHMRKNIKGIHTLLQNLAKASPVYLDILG
UniProt P04629, 33-796: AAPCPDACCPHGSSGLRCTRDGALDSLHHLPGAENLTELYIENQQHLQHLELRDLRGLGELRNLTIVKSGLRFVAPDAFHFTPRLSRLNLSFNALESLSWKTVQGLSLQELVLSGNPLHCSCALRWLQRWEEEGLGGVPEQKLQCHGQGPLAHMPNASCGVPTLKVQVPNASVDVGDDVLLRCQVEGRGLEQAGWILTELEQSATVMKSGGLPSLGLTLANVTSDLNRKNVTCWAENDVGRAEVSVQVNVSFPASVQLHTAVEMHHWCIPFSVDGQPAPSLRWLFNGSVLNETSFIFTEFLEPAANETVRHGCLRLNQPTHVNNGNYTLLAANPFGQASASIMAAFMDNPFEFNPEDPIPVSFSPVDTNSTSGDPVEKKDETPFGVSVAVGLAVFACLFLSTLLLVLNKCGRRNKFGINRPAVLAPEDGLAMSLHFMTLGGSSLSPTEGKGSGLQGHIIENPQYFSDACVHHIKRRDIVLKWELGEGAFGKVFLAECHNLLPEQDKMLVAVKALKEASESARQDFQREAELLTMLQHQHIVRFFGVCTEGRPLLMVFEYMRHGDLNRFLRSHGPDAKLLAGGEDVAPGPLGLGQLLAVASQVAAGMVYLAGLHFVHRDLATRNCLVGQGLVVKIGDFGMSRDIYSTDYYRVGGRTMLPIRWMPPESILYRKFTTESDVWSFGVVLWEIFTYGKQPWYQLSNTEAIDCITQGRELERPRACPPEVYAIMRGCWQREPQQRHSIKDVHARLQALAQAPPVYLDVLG

Assay [1] has as its target ALK R1275Q (Homo sapiens, UniProt Q9UM73, R1275Q). As to the kind of experiment: Cell free kinase assay (Carna Biosciences kinases), ALK R1275Q.
Assay [2] has as its target TrkB (Homo sapiens, UniProt Q16620). As to the kind of experiment: In vitro kinase activity assay (LANCE TR-FRET), TrkB. The assay is classed as biochemical.
The target in assay [3] is TrkA (Homo sapiens, UniProt P04629). The assay is described as follows: In vitro kinase activity assay (LANCE TR-FRET), TrkA. The assay is classed as biochemical. The settings on record: read-out: TrKA IC50.

Turning to “2-(4-(1-(5-Fluoro-2-methylphenyl)propan-2-ylamino)-2-oxo-1,2-dihydropyridin-3-yl)-6-(2-(dimethylamino)ethyl)-6,7-dihydroimidazo[4,5-f]isoindole-5(1H)-one [Compound 45]”, the “cell free R1275Q resistance” value in assay [1] was 4 fold.

The IC50 is the concentration at which inhibition is half-maximal. In assay [2], `C[C@@H](Cc1c(F)c(F)cc(F)c1F)Nc1cc[nH]c(=O)c1-c1nc2cc3c(cc2[nH]1)CN(C1CCN(C)CC1)C3=O` [Compound 4, (S)-6-(1-Methylpiperidin-4-yl)-2-(2-oxo-4-(1-(2,3,5,6-tetrafluorophenyl)propan-2-ylamino)-1,2-dihydropyridin-3-yl)-6,7-dihydroimidazo[4,5-f]isoindol-5(3H)-one] had an IC50 of 3.48 nM.

As for “(S)-6-(2-(Dimethylamino)ethyl)-2-(2-oxo-4-((1-(2,3,5,6-tetrafluorophenyl)propan-2-yl)amino)-1,2-dihydropyridin-3-yl)-6,7-dihydroimidazo[4,5-f]isoindol-5(3H)-one [Compound 1]”, the half-maximal inhibitory concentration (IC50) in assay [3] amounted to 1 nM.
